Data on 1 molecule can be found in PMC12648092 (Acta Pharmaceutica Sinica. B, 2025).

Protein sequences, listed by entry. Tags and fused reporters are not part of them. Residues count along the entry.
UniProt P22303, 32-617 isoform P22303-2 limits assumed: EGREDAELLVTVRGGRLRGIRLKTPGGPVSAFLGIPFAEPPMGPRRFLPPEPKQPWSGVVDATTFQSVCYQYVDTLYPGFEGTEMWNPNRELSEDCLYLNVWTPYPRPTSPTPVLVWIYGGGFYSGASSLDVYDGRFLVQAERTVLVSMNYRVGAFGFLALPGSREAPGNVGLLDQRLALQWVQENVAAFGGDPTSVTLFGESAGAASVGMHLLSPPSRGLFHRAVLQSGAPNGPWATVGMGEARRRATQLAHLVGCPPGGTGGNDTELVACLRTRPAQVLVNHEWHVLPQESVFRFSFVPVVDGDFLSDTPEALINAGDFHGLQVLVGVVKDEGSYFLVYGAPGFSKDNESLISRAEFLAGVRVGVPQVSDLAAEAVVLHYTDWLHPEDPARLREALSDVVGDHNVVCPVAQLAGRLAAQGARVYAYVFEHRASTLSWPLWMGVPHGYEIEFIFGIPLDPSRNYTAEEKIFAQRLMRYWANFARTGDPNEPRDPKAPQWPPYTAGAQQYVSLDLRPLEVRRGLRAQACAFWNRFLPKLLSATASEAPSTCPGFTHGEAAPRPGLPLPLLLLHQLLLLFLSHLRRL

This experiment has as its target AChE (Homo sapiens, UniProt P22303). In words: ROCMCBs.

Molecule `COc1ccc2cc3[n+](cc2c1OC)CCc1cc2c(cc1-3)OCO2` [berberine] displayed an IC50 of 4.7 µM.

A word on the IC50: it is the concentration that inhibits the measured activity by half. A high value points to weaker potency.
